# Assay outcomes: PubChem, ICCB-Longwood Screening Facility, Harvard Medical School
# The sample as a whole holds a higher share of hits than the screen did.
# HCMV UL50-53 inh – inhibitors of HCMV UL50-UL53 interaction, biochemical, HTRF; HCMV UL50-UL53 nuclear egress complex (human cytomegalovirus); normalized percent inhibition; inhibition, % (no concentration beside the values); hit rate 0.15% among 190,000; in the data active means inhibition above about 27%, passing the limit was not always enough
# GIV Gai3 FP – inhibitors of GIV GBA-motif binding to rat Galpha-i3; P08753; Galpha-i3/FITC-GIV peptide fluorescence polarization, 90 min; active compounds read low; scaled: aluminum fluoride 0%, vehicle 100%; percent of control (FP), % (concentration not given with the values); 210,000 compounds, 0.42% hits; AID 1224905;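 active means replicate mean at 85% of control or lower, very high polarization wells dropped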;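 further: wells of about 15 µL received 100 nL stock; the first replicate is given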
# An asterisk follows results filed as active; / = no result given.
[1] CCCC(C(=O)Nc1ccc2c(c1)OCCO2)N1Cc2ccccc2C1=O (configuration not stated)
  HCMV UL50-53 inh: 1.7; GIV Gai3 FP: 102.8
[2] COc1ccc(C)cc1NC(=O)c1ccccc1OC(F)F
  HCMV UL50-53 inh: -38.5; GIV Gai3 FP: /
[3] COc1ccc(C2=CC(c3ccccc3F)n3ncc(C(=O)Nc4ccc(C)cc4)c3N2)cc1 (configuration not stated)
  HCMV UL50-53 inh: /; GIV Gai3 FP: 105.5
[4] COc1cccc(C2=CC(c3ccccc3F)n3ncc(C(=O)Nc4ccc(F)cc4)c3N2)c1 (configuration not stated)
  HCMV UL50-53 inh: /; GIV Gai3 FP: -59.8*
[5] CCOC(=O)CNC(=O)CCc1c(C)n(C)c2cc(-c3ccccc3C)nn2c1=O
  HCMV UL50-53 inh: /; GIV Gai3 FP: 105.7
[6] O=C(c1cccc(S(=O)(=O)Nc2cc(C(F)(F)F)ccc2Cl)c1)N1CCN(c2ncccn2)CC1
  HCMV UL50-53 inh: -25.3; GIV Gai3 FP: /
[7] O=C1/C(=C\c2ccc(Br)o2)CC/C1=C/c1ccc(Br)o1
  HCMV UL50-53 inh: /; GIV Gai3 FP: 280.8
[8] O=C1/C(=C/c2cc3ccccc3o2)CC/C1=C\c1cc2ccccc2o1
  HCMV UL50-53 inh: /; GIV Gai3 FP: -5.9*
[9] Cc1noc2c1C(C(C)C)C1=C(CC(c3ccc(Cl)cc3)CC1=O)N2 (configuration not stated)
  HCMV UL50-53 inh: 1.0; GIV Gai3 FP: 102.3
[10] O=C(O)C1CSC(C2CCCCC2)N1 (configuration not stated)
  HCMV UL50-53 inh: -2.1; GIV Gai3 FP: 103.5

[11] CCOc1cc(/C=C2/SC(=Nc3ccccc3)NC2=O)cc(Br)c1O
  HCMV UL50-53 inh: -53.4; GIV Gai3 FP: 276.4
[12] CCOc1cc(/C=C2/SC(=S)N(C)C2=O)cc(Br)c1O
  HCMV UL50-53 inh: -0.6; GIV Gai3 FP: -46.7*
[13] O=c1[nH]c(=O)c2nc3c(ccc4nsnc43)nc2[nH]1
  HCMV UL50-53 inh: /; GIV Gai3 FP: 120.3
[14] Nc1ccc2nc3c(=O)[nH]c(=O)[nH]c3nc2c1
  HCMV UL50-53 inh: /; GIV Gai3 FP: 17.5*
[15] COc1ccc(OC)c(-c2csc(-c3nnn(-c4ccc(F)cc4)c3N)n2)c1
  HCMV UL50-53 inh: -8.7; GIV Gai3 FP: 111.0
[16] CC(C)C(NC(=O)c1ccc(Cl)cc1)C(=O)Nc1cccc(-n2cnnn2)c1 (configuration not stated)
  HCMV UL50-53 inh: -35.6; GIV Gai3 FP: /
[17] Cc1cccc(-n2c(Sc3nnnn3-c3ccccc3)nc3ccccc3c2=O)c1C
  HCMV UL50-53 inh: -15.8; GIV Gai3 FP: /
[18] Cc1ccccc1-n1nnnc1Sc1nnnn1-c1ccccc1
  HCMV UL50-53 inh: 39.7*; GIV Gai3 FP: /
[19] Cn1c(=O)c(Nc2ccccc2)c2c3c(cccc31)C(=O)c1ccccc1-2
  HCMV UL50-53 inh: /; GIV Gai3 FP: 116.4
[20] Cn1c(=O)c(N2CCCCC2)c2c3c(cccc31)C(=O)c1ccccc1-2
  HCMV UL50-53 inh: /; GIV Gai3 FP: -32.2*

# 6 entries out of the list above, sorted by the value under GIV Gai3 FP, descending.
cpd | Molecule | GIV Gai3 FP
7 | O=C1/C(=C\c2ccc(Br)o2)CC/C1=C/c1ccc(Br)o1 | 280.8
5 | CCOC(=O)CNC(=O)CCc1c(C)n(C)c2cc(-c3ccccc3C)nn2c1=O | 105.7
3 | COc1ccc(C2=CC(c3ccccc3F)n3ncc(C(=O)Nc4ccc(C)cc4)c3N2)cc1 (configuration not stated) | 105.5
14 | Nc1ccc2nc3c(=O)[nH]c(=O)[nH]c3nc2c1 | 17.5*
8 | O=C1/C(=C/c2cc3ccccc3o2)CC/C1=C\c1cc2ccccc2o1 | -5.9*
12 | CCOc1cc(/C=C2/SC(=S)N(C)C2=O)cc(Br)c1O | -46.7*

# The list continues.
[21] NCCc1nc(-c2ccccc2)no1
  HCMV UL50-53 inh: -1.0; GIV Gai3 FP: 98.5
[22] O=C(NC(=S)NCc1ccccc1)c1ccco1
  HCMV UL50-53 inh: -24.8; GIV Gai3 FP: 104.5
[23] O=C(/C=C/c1cccs1)Nc1ccc(F)cc1F
  HCMV UL50-53 inh: -11.7; GIV Gai3 FP: /
[24] CCOC(=O)C1(C#N)C(=O)C(C#N)=C2CCCCC2C1c1ccccc1 (configuration not stated)
  HCMV UL50-53 inh: -67.8; GIV Gai3 FP: -30.9*
[25] CCOC(=O)C1=C(C)NC2=C(C(=O)CCC2)C1c1ccccc1 (configuration not stated)
  HCMV UL50-53 inh: -28.2; GIV Gai3 FP: 100.0
[26] COc1ccc(C(=O)CSc2nc3ccccc3c(=O)[nH]2)cc1C
  HCMV UL50-53 inh: /; GIV Gai3 FP: 99.2
[27] O=c1oc2cc(Oc3ncccn3)ccc2c2c1CCCCC2
  HCMV UL50-53 inh: 5.2; GIV Gai3 FP: /
[28] CCCCN(CC)c1ncc(C(=O)O)cc1NS(=O)(=O)c1ccc(Br)cc1
  HCMV UL50-53 inh: -2.4; GIV Gai3 FP: 107.8
[29] CCN(CC)c1ncc(C(=O)O)cc1NS(=O)(=O)c1ccc(Br)cc1
  HCMV UL50-53 inh: -4.3; GIV Gai3 FP: 85.4*
[30] CN(C)C(CNC(=O)c1ccccc1SCC(=O)NCc1ccco1)c1ccccc1 (configuration not stated)
  HCMV UL50-53 inh: -6.7; GIV Gai3 FP: /

[31] CCOC(=O)C1=C(C)N=c2s/c(=C/c3cccc([N+](=O)[O-])c3O)c(=O)n2C1c1cc(OC)c(OC)c(OC)c1 (configuration not stated)
  HCMV UL50-53 inh: /; GIV Gai3 FP: 108.3
[32] CCOC(=O)C1=C(C)N=c2s/c(=C/c3cc([N+](=O)[O-])ccc3O)c(=O)n2C1c1ccc(SC)cc1 (configuration not stated)
  HCMV UL50-53 inh: /; GIV Gai3 FP: 26.5*
[33] CCOC(=O)C1=C(C)N=c2s/c(=C/c3cc([N+](=O)[O-])ccc3N3CCN(C)CC3)c(=O)n2C1c1ccc(F)cc1 (configuration not stated)
  HCMV UL50-53 inh: /; GIV Gai3 FP: 100.2
[34] CCOC(=O)C1=C(C)N=c2s/c(=C/c3cc(Br)cc([N+](=O)[O-])c3O)c(=O)n2C1c1ccccc1 (configuration not stated)
  HCMV UL50-53 inh: /; GIV Gai3 FP: 26.5*
[35] COC(=O)c1ccc(COC(=O)c2cccc(C#N)c2)o1
  HCMV UL50-53 inh: 7.0; GIV Gai3 FP: /
[36] CCOc1cc(C2C(C(=O)OCc3ccc(OC)cc3)=C(C)NC3=C2C(=O)CCC3)cc(Br)c1O (configuration not stated)
  HCMV UL50-53 inh: -14.4; GIV Gai3 FP: 104.2
[37] N#CC1=C(N)C(C#N)(C#N)C(c2ccccc2Cl)C2CN(Cc3ccccc3)CC=C12 (configuration not stated)
  HCMV UL50-53 inh: /; GIV Gai3 FP: 188.0
[38] N#CC1=C(N)C(C#N)(C#N)C(c2ccco2)C2CN(Cc3ccccc3)CC=C12 (configuration not stated)
  HCMV UL50-53 inh: -37.5; GIV Gai3 FP: -42.9*
[39] O=C(NCc1ccccc1)c1cc(NS(=O)(=O)c2ccc(Cl)cc2)ccc1N1CCNCC1
  HCMV UL50-53 inh: /; GIV Gai3 FP: 98.9
[40] Cc1noc(C)c1Cn1nnc(-c2cccc(C(F)(F)F)c2)n1
  HCMV UL50-53 inh: -26.2; GIV Gai3 FP: /

# Fetched one by one from the list above, 2 records:
[22] O=C(NC(=S)NCc1ccccc1)c1ccco1
  HCMV UL50-53 inh: -24.8; GIV Gai3 FP: 104.5
[15] COc1ccc(OC)c(-c2csc(-c3nnn(-c4ccc(F)cc4)c3N)n2)c1
  HCMV UL50-53 inh: -8.7; GIV Gai3 FP: 111.0

# Going on with the list:
No.	molecule	HCMV UL50-53 inh	GIV Gai3 FP
41	CN(C)c1ccc(/C=N/N=C(N)N)cc1	-37.2	102.9
42	O=C1C(=Cc2ccc(N3CCCC3)cc2)C(=O)c2ccccc21	-4.2	-61.3*
43	CN(C)c1ccc(/C=C2\Cc3ccccc3C2=O)cc1	/	-74.8*
44	CCn1c2ccccc2c2cc(/C=C3\Cc4ccccc4C3=O)ccc21	/	-74.3*
45	O=C1/C(=C/c2ccc(N3CCOCC3)cc2)Cc2ccccc21	/	-74.8*
46	O=C1NC(=O)C(=Cc2ccc(N3CCCC3)cc2)C(=O)N1	-3.8	99.2
47	CN(C)c1ccc(/C=C2\CCC/C(=C\c3ccccc3)C2=O)cc1	/	155.2
48	CCn1c2ccccc2c2cc(/C=C3\CCC(C4CCCC4)C3=O)ccc21 (configuration not stated)	/	105.6
49	O=C1/C(=C/c2ccc(N3CCOCC3)cc2)CC/C1=C\c1ccc(N2CCOCC2)cc1	/	133.4
50	Cc1ccccc1C(=O)Nc1ccc2c(c1)CC(=O)N2C	-14.9	106.5
51	CC1CCc2noc(NC(=O)c3ccc(Br)cc3)c2C1 (configuration not stated)	-24.5	102.0
52	COc1ccc(N2CCN(C(=O)c3ccc4nc(-c5ccc(OC)c(OC)c5)c(-c5ccc(OC)c(OC)c5)nc4c3)CC2)cc1	/	100.3
53	COc1ccc(C2CC(=O)N(c3ccc(F)c(C)c3)C(=O)C2)cc1OC	1.7	105.1
54	Cc1ccc(-c2nnc(NC(=O)c3cc4c([nH]c5ccccc54)c(C)n3)s2)cc1	/	103.8
55	COc1cc(CNCCc2ccc(F)cc2)ccc1OCc1ccc2c(c1)n(C)c(=O)n2C	-0.7	105.3
56	O=c1oc2c(CN3CCN(CCO)CC3)c(O)ccc2cc1-c1nc2ccccc2s1	-85.6	-45.3*
57	CN(C)Cc1c(O)ccc2cc(-c3nc4ccccc4s3)c(=O)oc12	-62.2	-45.3*
58	COc1cccc2cc(-c3nc4ccccc4s3)c(=O)oc12	-8.8	/
59	O=c1oc2c(CN3CCCCCC3)c(O)ccc2cc1-c1nc2ccccc2s1	-63.8	-31.8*
60	O=c1oc2c(CN3CCOCC3)c(O)ccc2cc1-c1ccccc1	/	102.0
61	COc1ccc(-c2cc3ccc(O)c(CN4CCN(CCO)CC4)c3oc2=O)cc1OC	/	125.5
62	CC1CCN(Cc2c(O)ccc3cc(-c4nc5ccccc5s4)c(=O)oc23)CC1	-45.3	-31.8*
63	CN1CCN(Cc2c(O)ccc3cc(-c4nc5ccccc5n4C)c(=O)oc23)CC1	-63.1	130.5
64	Fc1ccc(-c2noc(Cc3nc(-c4ccc(Cl)cc4)cs3)n2)cc1	/	171.0
65	Cc1cccc(-n2nc(C(=O)N3CCCC3)nc2-c2ccccc2)c1	26.0	108.3
